## Cyclic peptide permeability, from CycPeptMPDB

PAMPA is the parallel artificial membrane permeability assay, which has no cells and reads passive diffusion.
Values are log10 P with P in cm/s, so -5 is more permeable than -7.

{"smiles": "CC(C)C[C@H]1NC(=O)C[C@H](Cc2ccccc2)NC(=O)[C@H]2CCCN2C(=O)[C@H](Cc2ccccc2)NC(=O)[C@@H](CC(C)C)NC(=O)[C@@H]2CCCN2C(=O)[C@@H](CC(C)C)NC1=O", "PAMPA (log10 cm/s)": "-5.85"}
{"smiles": "CC(C)C[C@@H]1NC(=O)[C@@H]2CCCN2C(=O)CN(Cc2ccccc2)C(=O)[C@H](CC(C)C)N(C)C(=O)C[C@H](Cc2ccccc2)NC(=O)[C@H]2CCCN2C(=O)[C@H](Cc2ccccc2)NC1=O", "PAMPA (log10 cm/s)": "-5.61"}
{"smiles": "CC(C)C[C@H]1NC(=O)[C@H]2CCCN2C(=O)CN(Cc2ccccc2)C(=O)[C@H](CC(C)C)N(C)C(=O)[C@H](C)NC(=O)[C@H]2CCCN2C(=O)[C@H](Cc2ccccc2)NC1=O", "PAMPA (log10 cm/s)": "-6.15"}
{"smiles": "CC(C)C[C@@H]1NC(=O)[C@H](C)NC(=O)[C@H](Cc2ccccc2)NC(=O)[C@@H](CC(C)C)N(C)C(=O)[C@@H]2CCCN2C(=O)[C@H](CC(C)C)NC1=O", "PAMPA (log10 cm/s)": "-6.19"}
{"smiles": "CC(C)C[C@@H]1NC(=O)[C@@H](C)NC(=O)[C@@H]2CCCN2C(=O)[C@H](Cc2ccccc2)NC(=O)[C@H](CC(C)C)N(C)C(=O)[C@@H]2CCCN2C(=O)[C@@H](CC(C)C)N(C)C1=O", "PAMPA (log10 cm/s)": "-5.99"}
{"smiles": "CC(C)C[C@@H]1NC(=O)[C@@H](C)N(C)C(=O)[C@H](Cc2ccccc2)NC(=O)[C@H](CC(C)C)NC(=O)[C@H]2CCCN2C(=O)C[C@H](Cc2ccccc2)NC1=O", "PAMPA (log10 cm/s)": "-6.17"}
{"smiles": "CC(C)C[C@@H]1C(=O)N(C)[C@@H](CC(C)C)C(=O)N2CCC[C@@H]2C(=O)N(Cc2ccccc2)CC(=O)N[C@@H](Cc2ccccc2)C(=O)N2CCC[C@@H]2C(=O)N[C@H](C)C(=O)N1C", "PAMPA (log10 cm/s)": "-5.64"}
{"smiles": "CC(C)C[C@@H]1NC(=O)[C@H](CC(C)C)N(C)C(=O)C[C@H](Cc2ccccc2)NC(=O)[C@H]2CCCN2C(=O)[C@H](Cc2ccccc2)NC(=O)[C@@H](CC(C)C)N(C)C(=O)[C@@H]2CCCN2C1=O", "PAMPA (log10 cm/s)": "-5.64"}
{"smiles": "CC(C)C[C@@H]1C(=O)N(C)[C@@H](CC(C)C)C(=O)N2CCC[C@H]2C(=O)N(C)[C@H](CC(C)C)C(=O)N[C@@H](Cc2ccccc2)C(=O)N2CCC[C@@H]2C(=O)N(C)[C@H](C)C(=O)N1C", "PAMPA (log10 cm/s)": "-5.43"}
{"smiles": "CC(C)C[C@@H]1NC(=O)[C@H](CC(C)C)N(C)C(=O)[C@H](C)N(C)C(=O)[C@H]2CCCN2C(=O)[C@H](Cc2ccccc2)NC(=O)[C@H](CC(C)C)N(C)C(=O)[C@H]2CCCN2C1=O", "PAMPA (log10 cm/s)": "-4.98"}
{"smiles": "CC(C)C[C@@H]1NC(=O)[C@@H](CC(C)C)NC(=O)[C@H](C)NC(=O)[C@H](Cc2ccccc2)NC(=O)[C@@H](CC(C)C)N(C)C(=O)[C@@H]2CCCN2C1=O", "PAMPA (log10 cm/s)": "-5.94"}
{"smiles": "CC(C)C[C@@H]1NC(=O)[C@H](C)N(C)C(=O)[C@H](Cc2ccccc2)NC(=O)CN(Cc2ccccc2)C(=O)[C@@H]2CCCN2C(=O)[C@@H](CC(C)C)NC1=O", "PAMPA (log10 cm/s)": "-5.73"}
{"smiles": "CC(C)C[C@@H]1C(=O)N[C@@H](Cc2ccccc2)C(=O)N2CCC[C@H]2C(=O)N(C)[C@@H](C)C(=O)N[C@H](CC(C)C)C(=O)N(C)[C@@H](CC(C)C)C(=O)N2CCC[C@H]2C(=O)N1C", "PAMPA (log10 cm/s)": "-5.99"}
{"smiles": "CCCN1CC(=O)N(C)[C@@H](CC(C)C)C(=O)N[C@@H](CC(C)C)C(=O)N2CCC[C@H]2C(=O)N(C)[C@H](CC(C)C)C(=O)N[C@@H](Cc2ccccc2)C1=O", "PAMPA (log10 cm/s)": "-4.80"}

Again, the 2 entries with the lowest PAMPA:

{"smiles": "CC(C)C[C@@H]1NC(=O)[C@H](C)NC(=O)[C@H](Cc2ccccc2)NC(=O)[C@@H](CC(C)C)N(C)C(=O)[C@@H]2CCCN2C(=O)[C@H](CC(C)C)NC1=O", "PAMPA (log10 cm/s)": "-6.19"}
{"smiles": "CC(C)C[C@@H]1NC(=O)[C@@H](C)N(C)C(=O)[C@H](Cc2ccccc2)NC(=O)[C@H](CC(C)C)NC(=O)[C@H]2CCCN2C(=O)C[C@H](Cc2ccccc2)NC1=O", "PAMPA (log10 cm/s)": "-6.17"}

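The data file gives no further conditions (lipid, pH, time, direction or concentration), and values from different papers need not be comparable. The list need not hold all peptides of the study. Entries at the database's floor value (log10 P of -10) are not listed.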

Collected by the curators of CycPeptMPDB (Li et al. 2023) from Townsend et al. 2020, doi:10.26434/chemrxiv.13335941.v1.